Apparent affinities of Ab-14 variants for a coronavirus HR2 peptide

Binding partner: SARS-CoV-2 spike HR2 peptide, sequence PDVDLGDISGINAS.

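Phage display of a naive human antibody library on the peptide gave the parent. AAYL50 was designed without a model: most single CDR substitutions and a random sample of double and triple ones. The scFvs were displayed on barcoded MATa yeast, the peptide on MATalpha yeast. The frequency of each diploid, read from paired DNA barcodes, reflects how well the two displayed proteins bind. Scores were corrected for input abundance and mapped to Kd with protein pairs of known affinity run in the same pool. The assay was run in three technical replicates.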

Ab-14 is the parent antibody, in scFv form: VH, then a 15-residue (Gly4Ser)3 linker, then VL. The heavy chain is unchanged in all variants.
VH: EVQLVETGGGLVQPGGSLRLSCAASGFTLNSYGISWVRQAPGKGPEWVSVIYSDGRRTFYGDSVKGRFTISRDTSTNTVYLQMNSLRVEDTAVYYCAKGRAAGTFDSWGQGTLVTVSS
VL: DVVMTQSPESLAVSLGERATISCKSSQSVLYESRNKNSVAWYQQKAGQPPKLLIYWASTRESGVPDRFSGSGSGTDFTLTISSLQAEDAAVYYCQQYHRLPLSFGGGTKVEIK

Changes read parent residue, position, new residue, counted from the first residue of the VL shown. Scale: log10 of Kd in nM, estimated from mating counts; low values are strong binders. "ND" means that the variant was in the library but no mating with the target was seen in that replicate; the authors take this as a sign of poor binding, and no number exists. Nonspecific signal, from three strains lacking the peptide, appeared in 18% of pairings of library AAYL50, centred on 4.19 (5% of these signals below 2.99); values are not corrected for it. The control count says in how many pairings with the empty strains this scFv gave a signal, with their mean in brackets.

{"changes": "V29G+R60D+R99Y", "replicates, log10 nM": "ND / ND / ND", "empty controls": "0 of 9"}
{"changes": "W56N+R60N+S103N", "replicates, log10 nM": "2.86 / 2.79 / 3.32", "empty controls": "8 of 9 (4.77)"}
{"changes": "V29D+L30S+S103T", "replicates, log10 nM": "0.49 / 0.62 / 0.72", "empty controls": "0 of 9"}
{"changes": "A57E+S58G+Q96P", "replicates, log10 nM": "ND / 4.28 / 3.71", "empty controls": "2 of 9 (3.76)"}
{"changes": "N37I+S38M+P101G", "replicates, log10 nM": "ND / ND / ND", "empty controls": "3 of 9 (3.53)"}
{"changes": "S25L+A57L+R60L", "replicates, log10 nM": "5.33 / ND / ND", "empty controls": "1 of 9 (3.82)"}
{"changes": "S28V+E32P+A40I", "replicates, log10 nM": "ND / ND / ND", "empty controls": "0 of 9"}
{"changes": "E32H+Q96G+R99W", "replicates, log10 nM": "2.16 / 2.27 / 2.45", "empty controls": "3 of 9 (3.68)"}
{"changes": "S25W+R34I+S38D", "replicates, log10 nM": "ND / ND / 4.94", "empty controls": "1 of 9 (3.63)"}
{"changes": "A40R+A57N+S103F", "replicates, log10 nM": "ND / ND / ND", "empty controls": "5 of 9 (4.08)"}
{"changes": "V39R+T59D+R99S", "replicates, log10 nM": "3.69 / 3.90 / 6.39", "empty controls": "3 of 9 (4.72)"}
{"changes": "E32V+N35P+E61C", "replicates, log10 nM": "2.91 / 2.37 / 2.94", "empty controls": "2 of 9 (3.82)"}
{"changes": "Y31S+A40V+P101C", "replicates, log10 nM": "ND / ND / ND", "empty controls": "1 of 9 (3.47)"}
{"changes": "S25I+Q95Y+R99D", "replicates, log10 nM": "0.45 / 0.64 / 0.55", "empty controls": "4 of 9 (4.39)"}
{"changes": "N37G+A40H", "replicates, log10 nM": "5.07 / ND / 4.68", "empty controls": "7 of 9 (4.82)"}
{"changes": "Q27R+L100S+L102P", "replicates, log10 nM": "2.84 / 2.19 / 2.68", "empty controls": "6 of 9 (4.30)"}
{"changes": "R34K+A40E+E61A", "replicates, log10 nM": "ND / ND / 3.50", "empty controls": "1 of 9 (3.80)"}
{"changes": "S33G+A40V+L100T", "replicates, log10 nM": "ND / ND / ND", "empty controls": "0 of 9"}
{"changes": "Q27C+S33R+H98V", "replicates, log10 nM": "3.09 / 2.83 / 3.55", "empty controls": "5 of 9 (3.52)"}
{"changes": "E32Q+R34A+W56K", "replicates, log10 nM": "1.58 / 1.80 / 1.87", "empty controls": "2 of 9 (4.34)"}
{"changes": "Q27A+Y31W+R99C", "replicates, log10 nM": "ND / ND / ND", "empty controls": "1 of 9 (3.72)"}
{"changes": "E32G+R60F+R99E", "replicates, log10 nM": "ND / ND / ND", "empty controls": "2 of 9 (3.74)"}
{"changes": "R34F+N37A+S62M", "replicates, log10 nM": "1.88 / 1.69 / 2.11", "empty controls": "4 of 9 (4.08)"}
{"changes": "S26G+S33L+S62T", "replicates, log10 nM": "ND / ND / 3.63", "empty controls": "0 of 9"}

4 of these entries, quoted again:

| changes | replicates, log10 nM | empty controls |
|---|---|---|
| Q27A+Y31W+R99C | ND / ND / ND | 1 of 9 (3.72) |
| A40R+A57N+S103F | ND / ND / ND | 5 of 9 (4.08) |
| W56N+R60N+S103N | 2.86 / 2.79 / 3.32 | 8 of 9 (4.77) |
| V39R+T59D+R99S | 3.69 / 3.90 / 6.39 | 3 of 9 (4.72) |

Parent in this assay: reference entry 0.65, copy in this library 1.68.

Data: MIT Lincoln Laboratory AlphaSeq set, Engelhart et al. 2022, doi:10.1038/s41597-022-01779-4, as distributed in FLAb.